Earlier results as cited in patent US20230203096A1, “EPHA4 TARGETING COMPOUNDS AND METHODS OF USE THEREOF” (priority 2020, published 2023).

Chains of the proteins cited; added tags and fusions are not shown. Residues count along the entry.
UniProt P54764, 30-209 limits assumed, species assumed: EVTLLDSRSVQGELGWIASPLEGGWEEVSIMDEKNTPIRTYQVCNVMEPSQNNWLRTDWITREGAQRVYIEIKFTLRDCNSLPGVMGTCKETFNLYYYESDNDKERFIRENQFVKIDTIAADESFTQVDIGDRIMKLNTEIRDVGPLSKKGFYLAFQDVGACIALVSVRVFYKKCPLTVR

Molecular target: T1, EphA4-LBD (Homo sapiens, UniProt P54764)
T1 construct: first synthetic agonistic ligand with a dissociation constant for EphA4-LBD of ˜ 400 nM
Conditions: reported previously; read-out: dissociation constant for EphA4-LBD; cited from earlier work

COc1ccc2[nH]cc(CCNC(=O)[C@H](Cc3ccncc3)NC(=O)[C@H](Cc3ccc(Cl)cc3)NC(=O)[C@H](Cc3c[nH]c4ccc(O)cc34)NC(=O)CCCN)c2c1 [Compound 123C4, reference compound]
Kd: ~0.4 µM
